## Apparent affinities of Ab-14 variants for a coronavirus HR2 peptide

Reference: Engelhart et al. 2022, doi:10.1038/s41597-022-01779-4. File: FLAb, binding data.

Target: peptide PDVDLGDISGINAS, taken from heptad repeat 2 (HR2) of SARS-CoV-2 spike.

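Phage display of a naive human antibody library on the peptide gave the parent. AAYL49 was designed without a model: most single CDR substitutions and a random sample of double and triple ones. Affinity was read by AlphaSeq, a pooled yeast mating assay with surface-displayed partners. Mating (16 h, 30 °C) was followed by selection of diploids and sequencing of their barcodes. The ratio of observed to expected reads was calibrated, replicate by replicate, on BCL2-family standards whose Kd was known from biolayer interferometry. The assay was run in three technical replicates.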

Each scFv is VH, a 15-residue (Gly4Ser)3 linker, VL, as in the parent Ab-14, and differs from it in the CDRs of the heavy chain only.
VH: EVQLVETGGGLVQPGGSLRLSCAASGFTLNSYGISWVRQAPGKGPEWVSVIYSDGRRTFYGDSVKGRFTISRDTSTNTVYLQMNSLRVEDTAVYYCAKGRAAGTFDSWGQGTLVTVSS
VL: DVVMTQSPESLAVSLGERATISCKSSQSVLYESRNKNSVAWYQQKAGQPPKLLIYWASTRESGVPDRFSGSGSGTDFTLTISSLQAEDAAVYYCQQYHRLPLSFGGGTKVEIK

Substitutions are numbered in sequence along the VH above, starting at 1 (not Kabat). All variants listed here change N30 of the VH, counted from its first residue. Each Kd is an estimate from the mating assay, the geometric mean of the replicates in which the pair was seen; lower is stronger. A pair that was not seen in any replicate is written "nd"; this usually means weak binding, but a binder can also be missed. Background: pairings of library AAYL49 with three empty control strains gave a value in 15% of cases (median 11 µM, 5th percentile 680 nM). Values in that range, when seen in few replicates, are hard to tell from nonspecific mating.

Variant N30F Y52V A102V gave 9.8 µM (2 of 3 replicates).
Variant T28L N30P F59W gave 1.0 µM (3 of 3 replicates).
Variant N30D S35G A101N gave 13 µM (3 of 3 replicates).
Variant N30D Y32Q G55C gave 6.4 µM (1 of 3 replicates).
Variant N30T G103D gave 17 nM (3 of 3 replicates).
Variant N30L S53V Y60L gave 8.0 µM (1 of 3 replicates).
Variant N30E S31A R57A gave nd (0 of 3 replicates).
Variant N30V I34G R100I gave 11 µM (1 of 3 replicates).
Variant N30G D54W G103V gave nd (0 of 3 replicates).
Variant T28N N30D S107P gave nd (0 of 3 replicates).
Variant N30H V64R S107R gave 66 nM (3 of 3 replicates).
Variant N30F R57H gave 8.7 µM (1 of 3 replicates).
Variant N30E D62V gave 1.4 µM (3 of 3 replicates).
Variant N30P S31F Y60T gave 530 nM (1 of 3 replicates).
Variant N30H R57K G61K gave 130 nM (3 of 3 replicates).
Variant N30I Y32F T104S gave 40 µM (3 of 3 replicates).
Variant N30M Y32H V50E gave nd (0 of 3 replicates).
Variant N30R G55D T58W gave nd (0 of 3 replicates).
Variant N30E Y60P S107W gave nd (0 of 3 replicates).
Variant F27W T28E N30Y gave 3.2 µM (3 of 3 replicates).
Variant N30T S31M S107R gave nd (0 of 3 replicates).
Variant N30D F59P A101E gave 50 µM (3 of 3 replicates).
Variant N30P F59C Y60S gave nd (0 of 3 replicates).
Variant N30R R100A A101M gave 40 nM (3 of 3 replicates).
Variant N30C Y52L V64C gave 55 µM (2 of 3 replicates).
Variant N30P I34G F59T gave nd (0 of 3 replicates).
Variant N30S Y60Q K65F gave 45 µM (1 of 3 replicates).
Variant N30A S53A D106C gave 19 nM (3 of 3 replicates).
Variant N30L K65A gave 320 nM (3 of 3 replicates).
Variant N30D A102N gave 10 nM (3 of 3 replicates).
Variant N30E D62E A101Y gave 9.0 nM (3 of 3 replicates).
Variant L29P N30R V50H gave nd (0 of 3 replicates).
Variant N30W gave 100 nM (3 of 3 replicates).
Variant F27D T28M N30Q gave 4.7 nM (3 of 3 replicates).
Variant G26S N30V K65N gave 30 µM (3 of 3 replicates).
Variant T28Q N30K I34Y gave nd (0 of 3 replicates).
Variant N30P R57H D106G gave 300 µM (3 of 3 replicates).
Variant G26S N30S Y52V gave nd (0 of 3 replicates).
Variant F27Q N30R V64I gave 9.0 µM (3 of 3 replicates).
Variant N30F Y32V S53R gave 18 µM (1 of 3 replicates).
Variant N30C gave 13 µM (2 of 3 replicates).
Variant N30Y V50H gave nd (0 of 3 replicates).
Variant N30E I51L T58M gave 190 nM (3 of 3 replicates).
Variant N30K F59Q T104K gave nd (0 of 3 replicates).
Variant N30A R56Y A102F gave 3.3 µM (2 of 3 replicates).
Variant F27H N30I Y60K gave 26 µM (2 of 3 replicates).
Variant N30H S63K A101C gave 530 nM (2 of 3 replicates).
Variant T28W N30E T104F gave nd (0 of 3 replicates).

The first 6 entries again:

changes	Kd (apparent)	detected
N30F Y52V A102V	9.8 µM	2/3
T28L N30P F59W	1.0 µM	3/3
N30D S35G A101N	13 µM	3/3
N30D Y32Q G55C	6.4 µM	1/3
N30T G103D	17 nM	3/3
N30L S53V Y60L	8.0 µM	1/3